The record followed here is patent US8431704B2, “Quinoline or isoquinoline substituted P2X7 antagonists” (Janssen Pharmaceutica NV, priority 2008, dated 2013).

Protein sequences, listed by entry. Tags and fused reporters are not part of them.
UniProt Q99572, whole entry: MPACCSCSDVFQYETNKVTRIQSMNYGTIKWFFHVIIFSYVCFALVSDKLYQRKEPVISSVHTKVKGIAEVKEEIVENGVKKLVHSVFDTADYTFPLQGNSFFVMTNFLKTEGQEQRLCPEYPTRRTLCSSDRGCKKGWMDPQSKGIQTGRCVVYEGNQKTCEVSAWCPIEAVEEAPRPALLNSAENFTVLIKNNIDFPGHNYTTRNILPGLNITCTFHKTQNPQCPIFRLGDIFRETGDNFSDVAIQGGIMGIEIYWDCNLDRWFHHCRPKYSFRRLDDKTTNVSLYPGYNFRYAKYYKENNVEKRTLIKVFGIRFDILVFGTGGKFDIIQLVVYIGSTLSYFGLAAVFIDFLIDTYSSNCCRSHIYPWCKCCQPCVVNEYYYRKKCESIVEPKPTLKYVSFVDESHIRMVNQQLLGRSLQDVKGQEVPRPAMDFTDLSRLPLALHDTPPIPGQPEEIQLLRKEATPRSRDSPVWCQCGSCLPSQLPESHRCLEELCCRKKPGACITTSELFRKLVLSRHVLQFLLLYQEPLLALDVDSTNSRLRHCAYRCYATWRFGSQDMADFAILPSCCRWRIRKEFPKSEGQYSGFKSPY

For this assay, the target named is hP2X7 (Homo sapiens, UniProt Q99572). In words: P2X7 antagonism: ligand-induced Ca2+ flux in 1321N1 astrocytoma cells overexpressing hP2X7. As to conditions: pIC50 = -log(IC50). On the technique in general: Calcium flux is commonly read through the fluorescence of an indicator in the cells.
In the case of `O=C(NCC(c1cnc(C(F)(F)F)nc1)N1CCOCC1)c1cccc2nc(NCC3CC3)ccc12` (stereo not shown), the “hP2RX7pIC50 (mean pIC50 values)” value is 7.35.
In the case of `O=C(NCC(c1cnc(C(F)(F)F)nc1)N1CCC(F)(F)CC1)c1cccc2nc(N3CCCC(O)C3)ccc12` (stereo not shown) it was 7.32; in that of `CC(C)(C)OC(=O)N1CCN(c2ccc3c(C(=O)NCC(c4cnc(C(F)(F)F)nc4)N4CCCOCC4)cccc3n2)CC1` (stereo not shown), 7.28.
Under `CC(C)(C)OC(=O)NC1CCN(c2ccc3c(C(=O)NCC(c4cnc(C(F)(F)F)nc4)N4CCC(F)(F)CC4)cccc3n2)CC1` (stereo not shown) stands 6.67; under `O=C(NCC(c1cnc(C(F)(F)F)nc1)N1CCCC(F)(F)C1)c1cccc2nc(N3CC(O)C3)ccc12` (stereo not shown), 7.39.
In the case of `O=C(NCC(c1cnc(C(F)(F)F)nc1)N1CCC(F)(F)CC1)c1cccc2nc(NCc3ccccc3)ccc12` (stereo not shown) it was 7.2; in that of `O=C(NCC(c1cnc(C(F)(F)F)nc1)N1CCC(F)(F)CC1)c1cccc2nc(NC[C@H]3CCCO3)ccc12` (stereo partly shown), 7.4.
On to `O=C(NCC(c1cnc(C(F)(F)F)nc1)N1CCCOCC1)c1cccc2ncccc12` (stereo not shown), for which the “hP2RX7pIC50 (mean pIC50 values)” value was determined as 7.22.
Under `COCCN(C)c1ccc2c(C(=O)NCC(c3cnc(C(F)(F)F)nc3)N3CCC(F)(F)CC3)cccc2n1` (stereo not shown) stands 7.37.
Under `O=C(NCC(c1ccc(C(F)(F)F)nc1)N1CCC(F)(F)CC1)c1ccc2ncccc2c1` (stereo not shown) stands 5.91.
Under `O=C(NCC(c1cnc(C(F)(F)F)nc1)N1CCOCC1)c1cccc2ncccc12` (stereo not shown) stands 7.4; under `O=C(NCC(c1cnc(C(F)(F)F)nc1)N1CCOCC1)c1cccc2nc(NCC3CCCO3)ccc12` (stereo not shown), 7.03; under `O=C(NCC(c1cnc(C(F)(F)F)nc1)N1CCOCC1)c1cccc2nc(N3CCOCC3)ccc12` (single isomer, unassigned) [111], 7.29.
In the case of `O=C(NCC(c1cnc(C(F)(F)F)nc1)N1CCC(F)(F)CC1)c1cccc2nc(NC3CCC3)ccc12` (single isomer, unassigned), the “hP2RX7pIC50 (mean pIC50 values)” value is 7.45.
Turning to `O=C(NCC(c1cnc(C(F)(F)F)nc1)N1CCOCC1)c1cccc2nc(N3CCOCC3)ccc12` (single isomer, unassigned) [110], the “hP2RX7pIC50 (mean pIC50 values)” value came to 7.3.
In the case of `O=C(NCC(c1cnc(C(F)(F)F)nc1)N1CCCCCC1)c1cccc2nc(N3CCOCC3)ccc12` (stereo not shown) it was 7.48.
Take `O=C(NCC(c1cnc(C(F)(F)F)nc1)N1CCCCCC1)c1cccc2nc(NCCO)ccc12` (stereo not shown): the “hP2RX7pIC50 (mean pIC50 values)” value worked out at 7.49.
In the case of `O=C(NCC(c1cnc(C(F)(F)F)nc1)N1CCC(F)(F)CC1)c1cccc2nc(NCCN3CCOCC3)ccc12` (stereo not shown) it was 7.42; in that of `O=C(NCC(c1cnc(C(F)(F)F)nc1)N1CCC(F)(F)CC1)c1cccc2nc(N3CCCC3)ccc12` (stereo not shown), 7.4.
Under `O=C(NCC(c1ccc(C(F)(F)F)nc1)N1CCC(F)(F)CC1)c1cnc2ccccc2c1` (stereo not shown) stands 7.03; under `CN(CCO)c1ccc2c(C(=O)NCC(c3cnc(C(F)(F)F)nc3)N3CCC(F)(F)CC3)cccc2n1` (stereo not shown), 7.37; under `CNc1ccc2c(C(=O)NCC(c3cnc(C(F)(F)F)nc3)N3CCC(F)(F)CC3)cccc2n1` (stereo not shown), 7.55.
`Cc1ncc(C(CNC(=O)c2cccc3ncccc23)N2CCOCC2)cn1` (stereo not shown): the “hP2RX7pIC50 (mean pIC50 values)” value is 5.99.
As to `O=C(NCC(c1cnc(C(F)(F)F)nc1)N1CCCC(F)(F)C1)c1cccc2nc(N3CCOCC3)ccc12` (stereo not shown), the “hP2RX7pIC50 (mean pIC50 values)” value is reported as 7.53.
In the case of `COCCCNc1ccc2c(C(=O)NCC(c3cnc(C(F)(F)F)nc3)N3CCC(F)(F)CC3)cccc2n1` (stereo not shown) it was 7.55; in that of `O=C(NCC(c1ccc(C(F)(F)F)nc1)N1CCOCC1)c1cccc2nc(N3CCOCC3)ccc12` (stereo not shown), 7.32; in that of `Cc1ncc(C(CNC(=O)c2cccc3ncccc23)N2CCC(F)(F)CC2)cn1` (stereo not shown), 6.84.
Under `O=C(NCC(c1cnc(C(F)(F)F)nc1)N1CCCC(F)(F)C1)c1cccc2nc(NCCO)ccc12` (stereo not shown) stands 7.47; under `O=C(NCC(c1ccc(C(F)(F)F)nc1)N1CCS(=O)(=O)CC1)c1cccc2ncccc12` (stereo not shown), 5.59; under `O=C(NCC(c1ccc(C(F)(F)F)nc1)N1CCC(F)(F)CC1)c1cccc2nc(N3CCOCC3)ccc12` (stereo not shown), 7.48.
As to `O=C(NCC(c1cnc(C(F)(F)F)nc1)N1CCOCC1)c1cccc2nc(Cl)ccc12` (stereo not shown), the “hP2RX7pIC50 (mean pIC50 values)” value was found to be 7.34.
In the case of `CC(C)Nc1ccc2c(C(=O)NCC(c3cnc(C(F)(F)F)nc3)N3CCC(F)(F)CC3)cccc2n1` (stereo not shown) it was 7.38.
In the case of `O=C(NCC(c1cnc(C(F)(F)F)nc1)N1CCC(F)(F)CC1)c1cccc2nc(NCCCO)ccc12` (single isomer, unassigned) [69] it was 7.47; in that of `O=C(NCC(c1cnc(C(F)(F)F)nc1)N1CCOCC1)c1cccc2nc(N3CCOCC3)ccc12` (single isomer, unassigned) [80], 7.33.
Turning to `Cc1ncc(C(CNC(=O)c2cccc3nc(N4C[C@@H](C)O[C@@H](C)C4)ccc23)N2CCOCC2)cn1` (stereo partly shown), the “hP2RX7pIC50 (mean pIC50 values)” value stood at 6.43.
Under `CCNc1ccc2c(C(=O)NCC(c3cnc(C(F)(F)F)nc3)N3CCC(F)(F)CC3)cccc2n1` (stereo not shown) stands 7.54; under `C[C@@H]1CN(c2ccc3c(C(=O)NC[C@H](c4cnc(C(F)(F)F)nc4)N4CCC(F)(F)CC4)cccc3n2)C[C@H](C)N1`, 7.21; under `O=C(NCC(c1ccc(C(F)(F)F)nc1)N1CCC(F)(F)C1)c1cccc2ncccc12` (stereo not shown), 6.74.
Under `O=C(NCC(c1ccc(C(F)(F)F)nc1)N1CCN(c2ccccc2)CC1)c1cccc2ncccc12` (stereo not shown) stands 5.17; under `CCN1CCN(c2ccc3c(C(=O)NCC(c4cnc(C(F)(F)F)nc4)N4CCOCC4)cccc3n2)CC1` (stereo not shown), 7.23; under `CC1CN(c2ccc3c(C(=O)NCC(c4cnc(C(F)(F)F)nc4)N4CCOCC4)cccc3n2)CC(C)O1` (stereo not shown), 6.86.
For the molecule `O=C(NCC(c1cnc(C(F)(F)F)nc1)N1CCOCC1)c1cccc2nc(NCCCO)ccc12` (stereo not shown), the “hP2RX7pIC50 (mean pIC50 values)” value came to 7.
Under `CCN1CCN(c2ccc3c(C(=O)NCC(c4cnc(C(F)(F)F)nc4)N4CCCOCC4)cccc3n2)CC1` (stereo not shown) stands 7.34; under `O=C(NCC(c1cnc(C(F)(F)F)nc1)N1CCOCC1)c1cccc2nc(NCC(F)(F)F)ccc12` (stereo not shown), 7.23; under `COCCNc1ccc2c(C(=O)NCC(c3cnc(C(F)(F)F)nc3)N3CCC(F)(F)CC3)cccc2n1` (stereo not shown), 7.41.
Under `O=C(NCC(c1cnc(C(F)(F)F)nc1)N1CCC(F)(F)CC1)c1cccc2nc(NC3CC3)ccc12` (single isomer, unassigned) [143] stands 7.46.
In the case of `O=C(NCC(c1cnc(C(F)(F)F)nc1)N1CCOCC1)c1cccc2nc(N3CC(O)C3)ccc12` (stereo not shown) it was 6.99; in that of `O=C(NCC(c1cnc(C(F)(F)F)nc1)N1CCCOCC1)c1cccc2nc(NC3CCOCC3)ccc12` (stereo not shown), 6.81; in that of `Cc1ccc2c(C(=O)NCC(c3cnc(C(F)(F)F)nc3)N3CCC(F)(F)CC3)cccc2n1` (stereo not shown), 7.41.
For `O=C(NCC(c1cnc(C(F)(F)F)nc1)N1CCCCCC1)c1cccc2nc(N3CC(O)C3)ccc12` (stereo not shown), the “hP2RX7pIC50 (mean pIC50 values)” value is on record as 7.44.
Turning to `CC1CCCN(c2ccc3c(C(=O)NCC(c4cnc(C(F)(F)F)nc4)N4CCC(F)(F)CC4)cccc3n2)C1` (stereo not shown), the “hP2RX7pIC50 (mean pIC50 values)” value is reported as 6.61.
`O=C(NCC(c1cnc(C(F)(F)F)nc1)N1CCC(F)(F)CC1)c1cccc2nc(NCCO)ccc12` (single isomer, unassigned) [68]: the “hP2RX7pIC50 (mean pIC50 values)” value was found to be 7.33.
For the molecule `CC1CN(c2ccc3c(C(=O)NCC(c4cnc(C(F)(F)F)nc4)N4CCCC(F)(F)C4)cccc3n2)CCO1` (stereo not shown), the “hP2RX7pIC50 (mean pIC50 values)” value was 7.41.
For `O=C(NCC(c1cnc(C(F)(F)F)nc1)N1CCOCC1)c1cccc2nc(NC3CCOCC3)ccc12` (stereo not shown), the “hP2RX7pIC50 (mean pIC50 values)” value is 6.76.
Take `O=C(NCC(c1cnc(C(F)(F)F)nc1)N1CCC(F)(F)CC1)c1cccc2ncccc12` (stereo not shown): the “hP2RX7pIC50 (mean pIC50 values)” value is recorded as 7.48.
In the case of `O=C(NCC(c1cnc(C(F)(F)F)nc1)N1CCC(F)(F)CC1)c1cccc2nc(N3CCNCC3)ccc12` (stereo not shown) [Compound 78] it was 7.52; in that of `COC1CCCN(C(CNC(=O)c2cccc3ncccc23)c2cnc(C(F)(F)F)nc2)C1` (stereo not shown), 5.1.
Consider `O=C(NCC(c1cnc(C(F)(F)F)nc1)N1CCC(F)(F)CC1)c1cccc2nc(NC3CCOCC3)ccc12` (stereo not shown), for which the “hP2RX7pIC50 (mean pIC50 values)” value was determined as 7.07.
Under `CCOc1ccc2c(C(=O)NCC(c3cnc(C(F)(F)F)nc3)N3CCC(F)(F)CC3)cccc2n1` (stereo not shown) stands 7.41.
In the case of `NC1CCN(c2ccc3c(C(=O)NCC(c4cnc(C(F)(F)F)nc4)N4CCC(F)(F)CC4)cccc3n2)CC1` (stereo not shown) it was 7.49; in that of `O=C(NCC(c1cccnc1)N1CCC(F)(F)CC1)c1cccc2ncccc12` (stereo not shown), 6.05; in that of `O=C(NCC(c1cnc(C(F)(F)F)nc1)N1CCC(F)(F)CC1)c1cccc2nc(N3CCCCC3)ccc12` (stereo not shown), 7.19.
Under `O=C(NCC(c1cnc(C(F)(F)F)nc1)N1CCC(F)(F)CC1)c1cccc2nc(N3CCN(CCO)CC3)ccc12` (stereo not shown) stands 7.44; under `O=C(NCC(c1cnc(C(F)(F)F)nc1)N1CCCOCC1)c1cccc2nc(N3CC(O)C3)ccc12` (stereo not shown), 7.06; under `CC(C)(C)OC(=O)N1CCN(c2ccc3c(C(=O)NCC(c4cnc(C(F)(F)F)nc4)N4CCC(F)(F)CC4)cccc3n2)CC1` (stereo not shown), 6.62.
Take `COc1ncc(C(CNC(=O)c2cccc3nc(N4CCOCC4)ccc23)N2CCC(F)(F)CC2)cn1` (stereo not shown): the “hP2RX7pIC50 (mean pIC50 values)” value is 7.4.
For `CCN1CCN(c2ccc3c(C(=O)NCC(c4cnc(C(F)(F)F)nc4)N4CCC(F)(F)CC4)cccc3n2)CC1` (stereo not shown), the “hP2RX7pIC50 (mean pIC50 values)” value came to 7.45.
